Earlier results as cited in US20260109944A1, “Culture Method for Organoids” (Koninklijke Nederlandse Akademie Van Wetenschappen, priority 2014, published 2026).

Target: T1, ALK5 (TGF-βR1) (Homo sapiens, UniProt P36897)
T1 sequence (P36897 34-503): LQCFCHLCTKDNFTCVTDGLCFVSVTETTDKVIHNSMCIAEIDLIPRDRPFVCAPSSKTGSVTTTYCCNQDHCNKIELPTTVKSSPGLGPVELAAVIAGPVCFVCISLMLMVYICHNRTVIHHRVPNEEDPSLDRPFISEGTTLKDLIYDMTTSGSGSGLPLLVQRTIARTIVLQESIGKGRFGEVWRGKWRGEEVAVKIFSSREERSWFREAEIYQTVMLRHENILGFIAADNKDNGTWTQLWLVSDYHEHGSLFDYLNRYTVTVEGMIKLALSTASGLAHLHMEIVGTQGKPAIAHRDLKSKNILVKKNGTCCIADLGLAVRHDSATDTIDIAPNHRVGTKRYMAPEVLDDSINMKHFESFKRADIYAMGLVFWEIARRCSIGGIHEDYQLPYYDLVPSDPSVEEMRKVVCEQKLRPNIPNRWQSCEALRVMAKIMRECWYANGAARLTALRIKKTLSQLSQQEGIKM
Details: at high concentrations (approximate 10 μM or more); cited from earlier work

SMILES: C[S+]([O-])c1ccc(-c2nc(-c3ccc(F)cc3)c(-c3ccncc3)[nH]2)cc1 (stereo not shown) [SB-203580]
- inhibition of ALK5: thought to inhibit ALK5
